{"source": "patent US5851983", "key": {"[1]": {"molecular_target": "Human plasma kallikrein (human) (UniProt P03952)"}, "[2]": {"molecular_target": "Calf pancreatic chymotrypsin (Sigma) (calf (bovine)) (UniProt P00766)"}, "[3]": {"molecular_target": "Human plasma thrombin (human) (UniProt P00734)"}, "[4]": {"molecular_target": "Human plasma plasmin (human) (UniProt P00747)"}, "[5]": {"molecular_target": "Porcine pancreatic elastase (Sigma) (porcine) (UniProt P00772)"}, "[6]": {"molecular_target": "Calf pancreatic trypsin (Sigma) (calf (bovine)) (UniProt P00760)"}, "[7]": {"molecular_target": "Polymorphonuclear leukocyte elastase from human sputum (EPC Co.; Funakoshi Yakuhin) (human) (UniProt P08246)"}}}
{"substance": "aprotinin (Boehringer) (from UniProt P00974)", "values": [{"measurement": "concentration of inhibitory protein which exhibits a 50% inhibition", "setting": "[1]", "result": 70, "unit": "nM"}, {"measurement": "concentration of inhibitory protein which exhibits a 50% inhibition", "setting": "[2]", "result": 50, "unit": "nM"}, {"measurement": "concentration of inhibitory protein which exhibits a 50% inhibition", "setting": "[3]", "result": "> 2", "unit": "µM"}, {"measurement": "concentration of inhibitory protein which exhibits a 50% inhibition", "setting": "[4]", "result": 5, "unit": "nM"}, {"measurement": "concentration of inhibitory protein which exhibits a 50% inhibition", "setting": "[5]", "result": "> 2", "unit": "µM"}, {"measurement": "concentration of inhibitory protein which exhibits a 50% inhibition", "setting": "[6]", "result": 100, "unit": "nM"}, {"measurement": "concentration of inhibitory protein which exhibits a 50% inhibition", "setting": "[7]", "result": 300, "unit": "nM"}]}
